# Assay results: PubChem BioAssay AID924 (National Center for Advancing Translational Sciences (NCATS), 2007)
# The entries are a selection whose mix differs from that of the whole data set. Results filed as inconclusive are left out. Active and inactive are the calls of the source. The call rests on the fitted dose curve; in most records, active means well fitted cell-killing curve with a large enough effect; inconclusive means small, poorly fitted or top-dose-only effect; inactive means no such curve, though single readings can be large or run the other way.
# Assay: qHTS Screen for Compounds that Selectively Target Cancer Cells with p53 Mutations: Cytotoxicity of p53ts Cells at the Permissive Temperature;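 further: 0% = DMSO and -100% = full killing by reference compound; nearly all actives have a fitted effect of over 55% in size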
# Details: H1299-p53A138V at 32C, ATP luminescence viability, 24 h; at 1.84 µM (top of the series)
row,SMILES,"activity change, negative = cytotoxicity"
1,O=[N+]([O-])C(Cl)(Cl)Cl,inactive: -3.6%
